Source: patent US7141573B2, “Polypharmacophoric agents” (Molecular Insight Pharmaceuticals, Inc., priority 2000, dated 2006)

Chains of the proteins cited; added tags and fusions are not shown.
UniProt Q01959, whole entry: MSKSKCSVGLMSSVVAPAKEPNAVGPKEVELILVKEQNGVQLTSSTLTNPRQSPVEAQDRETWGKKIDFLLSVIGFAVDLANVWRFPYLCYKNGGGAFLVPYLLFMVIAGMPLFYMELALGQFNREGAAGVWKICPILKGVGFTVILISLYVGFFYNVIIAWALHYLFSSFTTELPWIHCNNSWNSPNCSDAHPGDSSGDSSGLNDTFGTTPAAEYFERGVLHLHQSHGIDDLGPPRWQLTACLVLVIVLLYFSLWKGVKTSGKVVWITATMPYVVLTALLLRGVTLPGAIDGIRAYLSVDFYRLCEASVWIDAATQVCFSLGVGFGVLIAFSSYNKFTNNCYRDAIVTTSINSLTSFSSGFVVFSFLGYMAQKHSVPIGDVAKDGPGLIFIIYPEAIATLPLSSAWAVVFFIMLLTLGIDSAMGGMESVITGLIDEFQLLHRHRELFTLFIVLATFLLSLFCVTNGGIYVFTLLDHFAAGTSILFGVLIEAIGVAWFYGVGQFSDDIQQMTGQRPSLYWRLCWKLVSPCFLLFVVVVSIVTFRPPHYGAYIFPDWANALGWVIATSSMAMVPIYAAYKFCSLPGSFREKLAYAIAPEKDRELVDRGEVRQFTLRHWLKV
UniProt P31645, whole entry: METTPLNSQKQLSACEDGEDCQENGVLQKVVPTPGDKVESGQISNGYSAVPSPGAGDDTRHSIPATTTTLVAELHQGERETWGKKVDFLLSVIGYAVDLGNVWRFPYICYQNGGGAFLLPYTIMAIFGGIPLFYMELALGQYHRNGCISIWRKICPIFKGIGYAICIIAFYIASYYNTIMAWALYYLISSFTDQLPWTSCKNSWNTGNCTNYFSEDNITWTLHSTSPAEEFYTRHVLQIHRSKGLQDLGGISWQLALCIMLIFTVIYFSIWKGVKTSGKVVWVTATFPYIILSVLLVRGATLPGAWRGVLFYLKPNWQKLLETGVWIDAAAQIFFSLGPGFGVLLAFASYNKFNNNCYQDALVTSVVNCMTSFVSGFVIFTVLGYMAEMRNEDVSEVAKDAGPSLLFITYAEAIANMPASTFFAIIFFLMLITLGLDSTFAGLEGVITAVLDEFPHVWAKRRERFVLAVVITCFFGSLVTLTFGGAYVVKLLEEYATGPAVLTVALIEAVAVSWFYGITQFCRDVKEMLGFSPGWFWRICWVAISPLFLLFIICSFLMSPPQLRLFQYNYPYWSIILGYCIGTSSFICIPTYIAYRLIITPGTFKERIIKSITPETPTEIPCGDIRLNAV

Columns and labels:
[1] = target: T1, human dopamine transporter (hDAT) (Homo sapiens, UniProt Q01959); experiment: [125I]RTI-55 binding to human dopamine transporter in HEK-293 hDAT membranes; conditions: Table II
T1 construct: expressed in transfected cells; host or cells: HEK-293 cells stably expressing recombinant hDAT
Experimental: To characterize drug interactions with the human dopamine transporter (hDAT), drugs (approximately 30 nM to 10 μM) were incubated with a membrane preparation from HEK-293 cells stably expressing the recombinant hDAT, [^125I]RTI-55 (34 pM), and buffer in a final volume of 250 μl. Independent assays were conducted 2 to 3 times with duplicate determinations. The Cheng-Prusoff equation was used to convert IC50 values to Ki values.

[2] = target: T1, human dopamine transporter (hDAT); conditions: Table 1; value taken from Eshleman et al., 1999; cited from earlier work
hSERT = target: T2, hSERT (Homo sapiens, UniProt P31645); experiment: [125I]RTI-55 binding in HEK hSERT membranes; conditions: Table II
T2 construct: expressed in transfected cells; host or cells: HEK cells expressing hSERT

c1ccc(CCCN2CCN(CCOC(c3ccccc3)c3ccccc3)CC2)cc1 [GBR-12935, reference compound]
[125I]RTI-55 Binding in HEK hDAT Membranes Hill slope [1]: −0.44 ± 0.09
Hill Coefficient [2]: −1.6 ± 0.8
[125I]RTI-55 Binding in HEK hSERT Membranes Hill slope (hSERT): −1.47 ± 0.36
